# Target: T1, Asparagine synthetase [glutamine-hydrolyzing] (Rattus norvegicus) (UniProt P49088)
# T1 sequence (whole entry): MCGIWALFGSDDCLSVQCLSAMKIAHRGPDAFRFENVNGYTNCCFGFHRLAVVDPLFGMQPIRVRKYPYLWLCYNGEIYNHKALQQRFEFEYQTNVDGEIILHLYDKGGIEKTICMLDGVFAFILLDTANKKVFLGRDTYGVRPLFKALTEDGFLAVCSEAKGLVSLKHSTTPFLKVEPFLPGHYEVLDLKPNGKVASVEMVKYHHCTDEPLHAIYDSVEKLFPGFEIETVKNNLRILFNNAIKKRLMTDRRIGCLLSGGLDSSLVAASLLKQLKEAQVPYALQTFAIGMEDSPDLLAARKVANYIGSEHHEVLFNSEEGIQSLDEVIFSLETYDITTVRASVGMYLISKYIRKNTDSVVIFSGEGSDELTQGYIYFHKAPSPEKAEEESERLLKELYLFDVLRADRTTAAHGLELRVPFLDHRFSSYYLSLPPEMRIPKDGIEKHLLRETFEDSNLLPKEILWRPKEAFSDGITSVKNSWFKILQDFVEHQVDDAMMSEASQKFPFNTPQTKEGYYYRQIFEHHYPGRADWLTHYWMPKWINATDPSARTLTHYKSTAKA
# Experiment: Inhibition of asparagine synthetase isolated from rat bearing Novikoff hepatoma cells using [14C]-L-aspartic acid as substrate at 2 mM incubated 15 mins prior to substrate addition measured after 30 mins
# Outline: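 ASase partially purified from excised rat Novikoff hepatoma (specific activity 0.51 μmol asparagine/mg protein/30 min). Enzyme and inhibitor were preincubated with 100 μmol Tris at pH 8.0 for 15 min at 37 °C. L-glutamine (20.0 μmol), L-aspartic acid (2.0 μmol) and L-aspartic acid-¹⁴C (2×10⁶ dpm) were then added and incubated 30 min at 37 °C. Isolated L-asparagine-¹⁴C was counted by scintillation. Percent inhibition came from duplicates on three separate days with fresh inhibitor solutions.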
smiles,measurement,value
N[C@@H](CC(=O)NCc1ccc(S(=O)(=O)F)cc1)C(=O)O,inhibition,33.7%

# Reference: ChEMBL document CHEMBL3243960
